# Assay results published in patent US5262537A, “Derivatives of 4,5,6,7-tetrahydroimidazo-[4,5-c]pyridinyl-6-carboxylic acid” (priority 1993, dated 1993).
# Protein sequences, listed by entry. Tags and fused reporters are not part of them. Residues count along the entry.
# UniProt P35563, 24-483 limits assumed: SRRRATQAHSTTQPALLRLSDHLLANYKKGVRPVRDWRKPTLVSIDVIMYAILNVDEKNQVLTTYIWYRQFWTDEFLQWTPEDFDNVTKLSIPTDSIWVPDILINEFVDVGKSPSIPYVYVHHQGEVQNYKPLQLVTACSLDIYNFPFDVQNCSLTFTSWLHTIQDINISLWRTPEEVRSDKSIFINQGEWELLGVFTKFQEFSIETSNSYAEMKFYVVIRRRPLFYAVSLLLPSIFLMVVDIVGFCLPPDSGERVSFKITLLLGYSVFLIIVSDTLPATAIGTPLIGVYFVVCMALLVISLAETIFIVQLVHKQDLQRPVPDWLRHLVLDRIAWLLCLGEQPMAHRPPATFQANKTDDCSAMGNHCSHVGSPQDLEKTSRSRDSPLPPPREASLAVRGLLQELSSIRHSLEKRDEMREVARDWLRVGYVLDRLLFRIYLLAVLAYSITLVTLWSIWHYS
# How the values were obtained:
# [1] = target: 5-HT3 (Rattus norvegicus, UniProt P35563); details: read-out: 5-HT3 IC50; 0.2 nM [3H]GR65630, rat entorhinal cortex, 40 minutes, room temperature; tested form: 2HCl.0.25H2O
# [2] = test system: Ferret; test: Cisplatin Ferret Assay--Antiemetic Screening; assay type: in vivo, Male ferrets; details: 0.1 mg/kg i.v., 30 minutes after cisplatin 10 mg/kg i.v.; percent reduction of emetic episodes vs controls, four hours; tested form: 2HCl.0.25H2O
compound,measurement,setting,value
COc1ccc(OC)c(NC(=O)[C@@H]2Cc3[nH]cnc3CN2C)c1,IC50,[1],162 nM
same,"Ferret Cisplatin Test % Prot, 0.1 mg/Kg",[2],50%
